From ChEMBL document CHEMBL4043296 (J Med Chem, 2018) come the findings set out here.

Amino acid sequences for entries named in this document (tags omitted).
UniProt P08173, whole entry: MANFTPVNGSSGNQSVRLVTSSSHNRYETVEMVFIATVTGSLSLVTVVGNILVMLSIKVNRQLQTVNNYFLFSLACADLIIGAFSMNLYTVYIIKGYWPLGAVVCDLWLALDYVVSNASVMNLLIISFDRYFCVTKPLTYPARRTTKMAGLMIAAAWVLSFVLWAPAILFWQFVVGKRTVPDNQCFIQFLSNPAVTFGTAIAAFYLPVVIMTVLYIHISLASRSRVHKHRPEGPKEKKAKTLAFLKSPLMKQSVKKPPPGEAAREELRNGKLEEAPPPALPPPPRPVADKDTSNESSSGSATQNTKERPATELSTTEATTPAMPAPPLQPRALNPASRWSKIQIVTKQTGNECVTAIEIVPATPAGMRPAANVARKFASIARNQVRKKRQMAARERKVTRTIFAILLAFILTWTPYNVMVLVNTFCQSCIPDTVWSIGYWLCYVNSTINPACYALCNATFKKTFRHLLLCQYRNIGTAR

Each structure is given as a SMILES string.

The target of test [1] is T1, Muscarinic acetylcholine receptor M4 (Homo sapiens, UniProt P08173). Kind of test: Antagonist activity at human SP/Myc epitope-tagged muscarinic M4 receptor expressed in HEK293T cells assessed as inhibition of carbachol-induced mVenus-fused beta-arrestin2 recruitment preincubated for 15 mins followed by carbachol induction measured after 2 mins by BRET assay. The class given is cell-based, HEK-293T.

For test [2], the target named is T1, Muscarinic acetylcholine receptor M4. Briefly: Antagonist activity at human SP/Myc epitope-tagged muscarinic M4 receptor expressed in HEK293T cells assessed as inhibition of carbachol-induced RLuc8-fused Galphaq activation preincubated for 15 mins followed by carbachol induction measured after 2 mins by BRET assay. The class given is cell-based, HEK-293T. (BRET reads energy transfer from a luciferase to a nearby fluorophore.)

A word on the IC50: it is the point on the concentration scale where inhibition reaches its midpoint. As to `CN1[C@@H]2C[C@@H](OC(=O)[C@H](CO)c3ccccc3)C[C@H]1[C@@H]1O[C@H]12`, the IC50 was 0.575 nM in test [1] and 5.37 nM in test [2].
